Assays:
[1] = test system: A549 lung carcinoma cells; test: Cell proliferation assay, A549 (CellTiter-Glo, 7 days); conditions: read-out: EC50 A549; A549, 7 days, CellTiter-Glo 2.0
Protocol: (§1) HepG2 hepatoma cells (ATCC, HB-8065) were maintained in DMEM with high glucose (Lonza, 12-914F) supplemented with 10% fetal bovine serum (FBS; Biowest, S181B-500) and 2 mM L-glutamine (Biowest, X0551-100) at 37° C. and 5% CO2. A549 lung carcinoma cells (ATCC, CCL-185) were maintained in F-12K medium (ThermoFisher 21127030) supplemented with 10% FBS at 37° C. and 5% CO2. Exponentially growing HepG2 or A549 were plated in white, clear-bottom 96-well plates (Corning, 3903) at a cell density of 2000 (HepG2) or 350 (A549) cells per well in 199 μL of HepG2 medium. Next, 1 μL of a 5-fold 9-point dilution series of test compound in DMSO was added to the different wells. Cells were incubated at 37° C. 5% CO2 for 7 days. Cell viability was assessed on day 7 with the CellTiter-Glo 2.0 Cell Viability assay kit (Promega, G9243) to quantify the intracellular amounts of ATP: first, 100 μL of cell culture medium was removed from each well, next 100 μL of CellTiter-Glo® 2.0 Reagent was added and plates were shaken for 2 minutes on an orbital shaker. After 10 minutes stabilization at room temperature, read-out was performed on a ThermoFisher VarioSkan Lux plate reader. Counts were normalized to DMSO control (0% inhibition) and the cytotoxic control (100% inhibition) and EC50 values were determined in GraphPad Prism 8 using the [Agonist] vs. response—Variable slope (four parameters) function. […]

Protein sequences, listed by entry. Tags and fused reporters are not part of them.
UniProt O14744, whole entry: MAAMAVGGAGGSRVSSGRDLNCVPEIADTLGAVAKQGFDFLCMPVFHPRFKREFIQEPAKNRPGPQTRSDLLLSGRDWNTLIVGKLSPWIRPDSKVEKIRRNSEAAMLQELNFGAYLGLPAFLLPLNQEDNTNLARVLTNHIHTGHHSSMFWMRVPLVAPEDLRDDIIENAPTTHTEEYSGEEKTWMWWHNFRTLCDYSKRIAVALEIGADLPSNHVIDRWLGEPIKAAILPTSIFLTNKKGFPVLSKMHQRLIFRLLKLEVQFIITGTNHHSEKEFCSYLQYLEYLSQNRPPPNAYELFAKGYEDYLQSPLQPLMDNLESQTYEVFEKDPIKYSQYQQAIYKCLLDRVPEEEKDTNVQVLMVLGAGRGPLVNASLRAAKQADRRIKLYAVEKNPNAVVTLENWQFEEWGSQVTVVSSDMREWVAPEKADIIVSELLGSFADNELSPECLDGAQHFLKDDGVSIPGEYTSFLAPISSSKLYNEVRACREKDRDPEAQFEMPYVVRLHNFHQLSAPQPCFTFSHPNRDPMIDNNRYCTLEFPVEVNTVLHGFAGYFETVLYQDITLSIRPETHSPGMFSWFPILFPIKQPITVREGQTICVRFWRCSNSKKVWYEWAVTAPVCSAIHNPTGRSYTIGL
UniProt Q9BQA1, whole entry partner: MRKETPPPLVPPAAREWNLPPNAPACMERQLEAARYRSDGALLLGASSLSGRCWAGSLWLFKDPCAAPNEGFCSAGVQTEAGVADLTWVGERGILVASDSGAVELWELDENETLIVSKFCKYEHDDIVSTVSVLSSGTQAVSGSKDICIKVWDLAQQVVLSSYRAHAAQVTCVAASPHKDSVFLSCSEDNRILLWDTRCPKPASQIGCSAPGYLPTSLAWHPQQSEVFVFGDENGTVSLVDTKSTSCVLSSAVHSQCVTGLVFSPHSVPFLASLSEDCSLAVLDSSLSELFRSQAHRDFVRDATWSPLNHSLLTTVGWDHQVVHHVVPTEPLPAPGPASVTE

[2] = test system: HepG2 hepatoma cells; test: Cell proliferation assay, HepG2 (CellTiter-Glo, 7 days); conditions: read-out: EC50 HepG2; HepG2, 7 days, CellTiter-Glo 2.0
Protocol: as §1

[3] = target: PRMT5/MEP50 (Homo sapiens (Human), UniProt O14744); test: PRMT5/MEP50 enzyme inhibition assay, Assay 2 (384-well, MALDI mass spectrometry, histone H4 1-21 peptide); conditions: read-out: Assay 2 IC50; 1 μM SAM, 0.1 μM histone H4 1-21 peptide, 18-hour incubation at rt
Protocol: Compounds were tested for inhibition of methyltransferase activity in 384-well plate assay format using mass spectrometry technology. In this enzyme inhibition assay, compounds were tested in a 11-dose IC50 mode with 3-serial dilution, in duplicate, starting at 1, 10, or 100 μM. Reactions were carried out at 1 μM SAM and 0.1 μM histone H4 1-21 peptide as substrates for methyl transfer. Following an 18-hour incubation at rt, the reaction was stopped with 0.5% formic acid. Products of the reaction were captured while unreacted substrates were washed away, prior to MALDI mass spectrometry detection and analysis. Percent enzyme activity was calculated based on no inhibitor DMSO control as 100% activity. EC50 values were determined in GraphPad Prism 8 using the [inhibitor] vs. response—Variable slope (four parameters) function.
Compounds of Formula (I) show activity in this assay. A value of ‘A’ in the table below indicates an IC50 of <1 nM, a value of ‘B’ indicates an IC50≥1 nM to ≤100 nM, and a value of ‘C’ indicates an IC50 value of >100 nM.

Structure (SMILES) | EC50 [1] | EC50 [2] | IC50 [3]
C[C@]1(CCc2ccc3cc(Br)c(N)nc3c2)C[C@@H](n2ccc3c(N)ncc(F)c32)[C@H](O)[C@@H]1O | < 20 nM | < 20 nM | –
C[C@]1(CCc2ccc3cc(Br)c(N)nc3c2)C[C@@H](c2ccc3c(N)ncnn23)[C@H](O)[C@@H]1O | – | – | < 1 nM
CCCCCOC(=O)Nc1ccc2ccc(CC[C@@]3(C)C[C@@H](c4ccc5c(N)ncnn45)[C@H](O)[C@@H]3O)cc2n1 | 20 to 100 nM | 20 to 100 nM | > 100 nM
